Test results from PubChem BioAssay AID1021 (Emory University Molecular Libraries Screening Center, 2008).
The list shows a part of the results, in another mix than the full data. The source made the active and inactive calls.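 How the source made its calls: active means compounds that cut the binding signal by more than half at the single screening dose; inactive means the rest.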

Sequences of proteins named here, by UniProt entry; tags and fusion partners are left off.
UniProt Q07820, whole entry: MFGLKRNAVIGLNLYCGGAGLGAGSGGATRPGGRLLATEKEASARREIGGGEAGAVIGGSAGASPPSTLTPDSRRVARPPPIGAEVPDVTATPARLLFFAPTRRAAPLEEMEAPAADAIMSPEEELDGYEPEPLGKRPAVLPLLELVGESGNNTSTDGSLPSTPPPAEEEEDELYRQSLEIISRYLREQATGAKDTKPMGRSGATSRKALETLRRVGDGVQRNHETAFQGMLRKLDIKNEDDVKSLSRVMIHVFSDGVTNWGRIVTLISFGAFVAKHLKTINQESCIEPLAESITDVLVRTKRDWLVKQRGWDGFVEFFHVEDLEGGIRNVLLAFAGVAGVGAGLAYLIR

The compounds below were run against Induced myeloid leukemia cell differentiation protein Mcl-1 (Homo sapiens) (UniProt Q07820) (assay: Mcl-1/Bid binding inhibitors, primary screen, biochemical, TR-FRET, 1536-well (AID 1021;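 further: His-tagged Mcl-1 with europium anti-His antibody binding Bid BH3 peptide; 0% = Mcl-1 plus peptide wells and 100% = peptide-only wells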)). Settings: TR-FRET Mcl-1/Bid-Dy647 peptide binding, at 21.7 µM, stronger effect = higher value.
In the case of `Cc1ccc(OCC(C)C)c(CN(CCCl)CCCl)c1`, the inhibition was active: 84.1%. For `CCOc1ccc(C)cc1CN(CCCl)CCCl`, the inhibition was inactive: 17.3%. For `COc1ccc(NC2CCN(CCc3ccccc3)CC2)c(OC)c1`, the inhibition was inactive: 16.5%. `O=C(NCC1(N2CCOCC2)CCCCC1)c1cc2ccccc2o1` was tested, and the inhibition was inactive: -12.5%. `CCOC(=O)N1CCC(Nc2ccc(OC)cc2)CC1` was tested, and the inhibition was inactive: -43.9%. With `O=C(OC1CN2CCC1CC2)C1c2ccccc2Oc2ccccc21` (centres undefined) the inhibition was inactive: -9.72%. `N#CC1(Nc2ccccc2)CCN(Cc2ccccc2)CC1` was tested, and the inhibition was inactive: -2.14%. For `COc1ccc(C(=O)NCC2(N3CCCCC3)CCCCC2)c(OC)c1OC`, the inhibition was inactive: -3.06%. `COc1ccc(CN(CCCl)CCCl)cc1Cl` was tested, and the inhibition was inactive: 16.9%. `CN(C)c1cccc(C(=O)NCC2(N3CCCCC3)CCCCC2)c1` was tested, and the inhibition was inactive: -66%. With `CC(C)c1ccc(NC2CCN(C(=O)OC(C)(C)C)CC2)cc1` the inhibition was inactive: -37%. For `COc1ccc(NC2CCN(C(=O)OC(C)(C)C)CC2)cc1`, the inhibition was inactive: -74.6%. In the case of `CN1CCN(CCOC(=O)C(O)(c2ccccc2)c2ccccc2)CC1`, the inhibition was inactive: -22.4%. In the case of `O=C(NCC1(N2CCOCC2)CCCCC1)c1cc(=O)[nH]c2ccccc12`, the inhibition was inactive: -2.29%. `O=C(NCC1(N2CCCCC2)CCCCC1)c1cccc([N+](=O)[O-])c1` was tested, and the inhibition was inactive: -28.9%. `N#CC1(Nc2ccccc2)CCN(CCc2ccccc2)CC1` was tested, and the inhibition was inactive: -27.5%. With `c1ccc(CN2CCC(Nc3ccccc3)CC2)cc1` the inhibition was inactive: -37.5%. `N#Cc1ccc(C(=O)NCC2(N3CCCCC3)CCCCC2)cc1` was tested, and the inhibition was inactive: -5.73%. For `N/C(=N\O)c1c(N)no[n+]1[O-]`, the inhibition was inactive: -12.1%. `O=C(OC1CN2CCC1CC2)C1c2ccccc2C=Cc2ccccc21` (centres undefined) was tested, and the inhibition was inactive: -19.8%. With `COc1ccc(C(=O)NCC2(N3CCOCC3)CCCCC2)cc1OC` the inhibition was inactive: -2.54%. For `CCC(CO)(C(=O)OC1CN2CCC1CC2)c1ccccc1` (centres undefined), the inhibition was inactive: 1.38%. `COc1cc(OC)cc(C(=O)NCC2(N3CCOCC3)CCCCC2)c1` was tested, and the inhibition was inactive: -9.84%. In the case of `CCCOc1ccc(C)cc1CN(CCCl)CCCl`, the inhibition was inactive: -0.33%. In the case of `CCOc1ncccc1C(=O)NCC1(N2CCOCC2)CCCCC1`, the inhibition was inactive: -14.4%. For `CC(C)(C)OC(=O)N1CCC(Nc2ccccc2)CC1`, the inhibition was inactive: -40.6%. In the case of `CCN1CCC(Nc2cccc(F)c2)CC1`, the inhibition was inactive: 30.7%. For `CN(C)c1ccc(C(=O)NCC2(N3CCCCC3)CCCCC2)cc1`, the inhibition was inactive: -42.8%. `Fc1ccccc1NC1CCN(Cc2ccccc2)CC1` was tested, and the inhibition was inactive: 32.9%.
